## Measured affinities in a library of Ab-95 light chain variants

Binding partner: SARS-CoV-2 spike HR2 peptide, sequence PDVDLGDISGINAS.

The variants keep the heavy chain, the linker and the frameworks of Ab-95 (scFv order VH, a 15-residue (Gly4Ser)3 linker, VL).
VH: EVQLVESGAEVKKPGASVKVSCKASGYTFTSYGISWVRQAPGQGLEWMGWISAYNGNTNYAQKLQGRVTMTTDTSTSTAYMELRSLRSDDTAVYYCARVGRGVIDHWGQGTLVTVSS
VL: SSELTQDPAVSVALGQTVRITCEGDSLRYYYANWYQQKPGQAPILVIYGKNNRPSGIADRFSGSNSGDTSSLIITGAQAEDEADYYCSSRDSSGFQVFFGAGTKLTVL

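The starting antibody came from a phage panning campaign against this peptide. Library AAYL52 holds single substitutions and randomly drawn double and triple substitutions in the CDRs. AlphaSeq pools MATa yeast showing the antibodies with MATalpha yeast showing the peptide. After mating in shaken culture at 30 °C for 16 h, diploids were selected and their barcode pairs sequenced. A regression on co-assayed BCL2-family reference pairs converts the normalised counts of each replicate to an apparent Kd. There are three technical replicates.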

The parent's light chain CDRs are EGDSLRYYYAN, GKNNRPS, SSRDSSGFQVF; each variant's own CDRs replace them letter for letter.
Kd is apparent (estimated from mating counts) and averaged on the log scale over replicates with a signal. Smaller is tighter.
An entry "no signal" has no value in the source: the pair was not observed among the diploids in any replicate. This suggests poor binding but is not conclusive.
For reference, the parent read 200 nM as the reference entry and 180 nM as a member of this library.
Background: pairings of library AAYL52 with three empty control strains gave a value in 28% of cases (median 8.2 µM, 5th percentile 800 nM). Values in that range, when seen in few replicates, are hard to tell from nonspecific mating.

CDR-L1 | CDR-L2 | CDR-L3 | apparent Kd | detected
EGDSLRYHYAN | GKNNRTS | SSVDSSGFQVF | 82 nM | 3 of 3
EGDSLRYYERN | GKNNRPS | SSRDSSGFLVF | 220 nM | 3 of 3
EGDSLRYYYAN | GKWNRPT | SSRDSSGFQDF | no signal | 0 of 3
EGDSLRYYYAN | GKNNRWS | SSRDSDGRQVF | 800 nM | 3 of 3
EGDSLWYYYAN | GKNNCPS | SSRDSSGFPVF | 32 µM | 1 of 3
EGDSLRYYYAN | GKNNRPS | SSRDSAGFNVF | 200 nM | 3 of 3
EGDSLEYYYAE | GRNNRPS | SSRDSSGFQVF | 8.0 µM | 3 of 3
EGDSLRYYYAN | GKVLRPS | SSRDSGGFQVF | 1.5 µM | 2 of 3
EGDSTRYYYAN | GQNNRES | SSRDSSGFQVF | no signal | 0 of 3
EGDSLRYYRAN | GINLRPS | SSRDSSGFQVF | 5.1 µM | 3 of 3
EGTSLRQYYAN | GKNNRPS | SSRDTSGFQVF | 440 nM | 3 of 3
EGDSERYYYAN | GKNNEPS | SSRDSSCFQVF | no signal | 0 of 3
EGDSLRYYYAG | GSNNTPS | SSRDSSGFQVF | 17 µM | 2 of 3
TDDSLRQYYAN | GKNNRPS | SSRDSSGFQVF | 1.0 µM | 3 of 3
EGDSLRYYFAN | GCNNRPS | SSRDSSGFQRF | 3.9 µM | 3 of 3
EGDSLRYYYAN | GKNNRPS | SFRDSGGFWVF | 2.1 µM | 1 of 3
ETDSLRYYYAN | GKNCRPS | SSRDSSGFQNF | 34 µM | 3 of 3
EGDVLRYYYAN | GKNNRPS | SSRMSSGFQVG | 100 µM | 1 of 3
EGDSLRYYYAN | GKNNRPS | VSRTSPGFQVF | 2.7 µM | 3 of 3
EGDSLRYGYAN | GANNRPS | SSRDSSGFQVD | 320 nM | 1 of 3
EGKSLRYYYDN | YKNNRPS | SSRDSSGFQVF | 460 nM | 3 of 3
EGDSVRYYYAN | GKNGRPS | SSRDSSGFQVF | 590 nM | 1 of 3
EGDSLRYYYAN | GKNNRPN | SSRDSWGVQVF | 170 nM | 3 of 3
EGDSVRYYYAN | GQNNLPS | SSRDSSGFQVF | 57 µM | 2 of 3
EGDSTRRYYAN | GKNNRPA | SSRDSSGFQVF | 2.1 µM | 3 of 3

Second part, the sequence after the result:

apparent Kd | detected | CDR-L1 | CDR-L2 | CDR-L3
260 nM | 3 of 3 | EGDSLRYYYAN | GKNNRPS | SSRDSSSFMVF
9.7 µM | 1 of 3 | EGDSERYYYAN | GKNNRPS | SSRDSTGFQLF
78 µM | 2 of 3 | EGDSLRYYYDN | CKNNRHS | SSRDSSGFQVF
350 nM | 3 of 3 | EGDSLFCMYAN | GKNNRPS | SSRDSSGFQVF
380 nM | 3 of 3 | EGDSLRYYYAN | GKNNEPS | SSRSSSGQQVF
26 µM | 2 of 3 | EGDSLRYYYAN | FKNIRPS | SSRDSSGFQYF
240 nM | 3 of 3 | EGDSLREYYEN | GKNNRPS | SVRDSSGFQVF
1.3 µM | 2 of 3 | EIDSLRYYYAN | GKNNRPS | SIRDSSGFQVT
1.8 µM | 3 of 3 | EGYSDRYYYAN | GKNNRPS | SSRDSSGFQVY
no signal | 0 of 3 | PGDSLRYYYMN | GKNNRPS | SSRDSSGFQVF
4.5 µM | 3 of 3 | EGDSLRYYYAN | GKNNRPS | CSRQSSGFQVF
17 µM | 2 of 3 | AGDSLRYYYAN | GKNNRPY | SSRKSSGFQVF
17 µM | 1 of 3 | EGDSLRYYYPG | GKNNEPS | SSRDSSGFQVF
930 nM | 3 of 3 | GGDSLRSYYAN | GKNNRDS | SSRDSSGFQVF
no signal | 0 of 3 | EGDSLRYYYAN | GFNNRPF | SSRDSSCFQVF
5.1 µM | 2 of 3 | EGDSHRYYYAN | GKNNRPS | SKRDSSGFQYF
10 µM | 1 of 3 | EGDSERYYYAN | GKNNRPS | PSRLSSGFQVF
660 nM | 1 of 3 | EGDSLRYYYAD | GKNNRPS | SSRDSSGLQEF
270 nM | 3 of 3 | EGDSLRYYYAN | GKNNRPS | SSRDSTGVQHF
7.1 µM | 3 of 3 | EGHSFRYYYAN | GKNNRPS | SSRDSSGFQWF
620 nM | 3 of 3 | EGDYLRYYYAN | GGNNRPS | SSRDSSGFQRF
6.3 µM | 3 of 3 | EGDSLRYYKAG | GKNNRPS | GSRDSSGFQVF
13 µM | 2 of 3 | EGDSLRYYLAN | EKNNRPS | SSRDSSGFFVF
1.8 µM | 2 of 3 | EGDSLRMYYAN | GKNNRPS | SSRDSIGFQVI
220 nM | 3 of 3 | EGDSLRYYYAN | GKNARPS | SSRDSSGFQMC
5.1 µM | 3 of 3 | FGDSLRWYYAN | GKNNRPS | VSRDSSGFQVF

Excerpt, the first 8 entries:

CDR-L1,CDR-L2,CDR-L3,apparent Kd,detected
EGDSLRYHYAN,GKNNRTS,SSVDSSGFQVF,82 nM,3 of 3
EGDSLRYYERN,GKNNRPS,SSRDSSGFLVF,220 nM,3 of 3
EGDSLRYYYAN,GKWNRPT,SSRDSSGFQDF,no signal,0 of 3
EGDSLRYYYAN,GKNNRWS,SSRDSDGRQVF,800 nM,3 of 3
EGDSLWYYYAN,GKNNCPS,SSRDSSGFPVF,32 µM,1 of 3
EGDSLRYYYAN,GKNNRPS,SSRDSAGFNVF,200 nM,3 of 3
EGDSLEYYYAE,GRNNRPS,SSRDSSGFQVF,8.0 µM,3 of 3
EGDSLRYYYAN,GKVLRPS,SSRDSGGFQVF,1.5 µM,2 of 3

The measurements come from Engelhart et al. 2022 (doi:10.1038/s41597-022-01779-4) through the FLAb antibody collection.